Test results: paper PMC11024795 (GeoHealth, 2024)

Protein sequences, listed by entry. Tags and fused reporters are not part of them. Residues count along the entry.
UniProt Q96P20, 742-991 limits assumed: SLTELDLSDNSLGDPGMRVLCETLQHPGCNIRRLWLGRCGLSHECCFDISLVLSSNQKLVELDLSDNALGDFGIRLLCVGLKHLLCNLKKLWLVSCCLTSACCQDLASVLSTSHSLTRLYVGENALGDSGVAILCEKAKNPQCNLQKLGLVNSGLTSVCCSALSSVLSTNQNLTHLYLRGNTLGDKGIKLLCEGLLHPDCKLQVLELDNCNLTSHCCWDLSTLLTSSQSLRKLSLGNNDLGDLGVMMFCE

Molecular target: hNLRP3 LRR recombinant protein (Homo sapiens, UniProt Q96P20)
Assay: Surface plasmon resonance
Type: binding

CCOP(=O)(OCC)Oc1ccc([N+](=O)[O-])cc1 [paraoxon]
Kd: 325 µM
